Source: paper PMC12138688, “Identification of Orthosteric GABAB Receptor Ligands by Virtual Screening and In Vitro Validation” (ACS Omega, 2025)

The chains behind the UniProt entries cited, without tags or fusion partners. Residues count along the entry.
UniProt Q9UBS5, 15-961 limits assumed: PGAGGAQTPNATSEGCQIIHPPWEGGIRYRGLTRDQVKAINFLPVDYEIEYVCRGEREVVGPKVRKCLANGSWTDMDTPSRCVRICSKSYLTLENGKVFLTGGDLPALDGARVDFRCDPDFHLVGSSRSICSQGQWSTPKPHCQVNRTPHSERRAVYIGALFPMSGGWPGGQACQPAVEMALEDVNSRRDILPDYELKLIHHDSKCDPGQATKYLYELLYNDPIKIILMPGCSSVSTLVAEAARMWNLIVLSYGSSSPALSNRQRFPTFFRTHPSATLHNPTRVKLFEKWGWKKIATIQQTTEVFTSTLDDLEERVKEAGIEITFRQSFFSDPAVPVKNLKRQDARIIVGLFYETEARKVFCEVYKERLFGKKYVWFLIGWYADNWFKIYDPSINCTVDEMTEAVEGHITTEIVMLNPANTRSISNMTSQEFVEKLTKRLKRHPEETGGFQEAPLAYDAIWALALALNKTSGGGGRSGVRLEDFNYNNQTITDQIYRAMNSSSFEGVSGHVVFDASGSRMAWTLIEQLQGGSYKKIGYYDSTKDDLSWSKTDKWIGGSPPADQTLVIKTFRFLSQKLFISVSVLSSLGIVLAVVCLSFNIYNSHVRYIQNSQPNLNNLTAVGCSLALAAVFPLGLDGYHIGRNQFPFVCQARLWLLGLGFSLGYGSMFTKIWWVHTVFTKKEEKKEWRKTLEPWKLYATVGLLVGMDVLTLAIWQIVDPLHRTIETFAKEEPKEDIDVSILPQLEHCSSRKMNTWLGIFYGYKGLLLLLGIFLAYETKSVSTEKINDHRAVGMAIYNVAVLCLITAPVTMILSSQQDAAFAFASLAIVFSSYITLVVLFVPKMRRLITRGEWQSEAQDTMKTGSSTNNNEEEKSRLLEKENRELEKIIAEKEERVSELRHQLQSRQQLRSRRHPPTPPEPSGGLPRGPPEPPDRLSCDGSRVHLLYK

Target: T1, human GABAB-R (Homo sapiens, UniProt Q9UBS5)
T1 construct: purchased Eurofins 2150335; host or cells: Chem-1 cells
Test: [3H]CGP54626 radioligand competition binding assay

CGP54626
IC50: 20 nM
Ki: 4.5 nM
